# The entries are a selection whose mix differs from that of the whole data set. Active and inactive are the calls of the source.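 Rule for the calls: active = inhibition above about 50% (limit read from the data); inactive = the rest.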
# Tested on: calpain II (m-calpain), Sus scrofa
# Test: inhibitors of pig calpain II, primary screen, biochemical, fluorogenic peptide substrate, 1536-well (AID 1236)
# Settings: purified calpain II, 30 min, at 16 µM, stronger effect = higher value
row,Structure (SMILES),inhibition
1,Cc1cc(C)cc(OP(C)(=O)Nc2ccc(SC(F)(F)F)cc2)c1 (stereo not given),inactive: 41.4%
2,CP(=S)(Nn1cnnc1)Oc1ccccc1 (stereo not given),inactive: 13.8%
3,CP(=O)(Nc1ccccc1Br)Oc1ccccc1 (stereo not given),inactive: 11.4%
4,COc1ccccc1OP(C)(=O)Nc1ccccc1 (stereo not given),inactive: -33%
5,CN1CCCCC1COC(=O)C1(O)c2ccccc2CCc2ccccc21 (stereo not given),inactive: 1%
6,COc1ccccc1OP(C)(=O)Nc1c(C)cccc1C (stereo not given),inactive: -11.8%
7,CP(=O)(Nc1ccc(SC(F)(F)F)cc1)Oc1ccccc1 (stereo not given),inactive: -2.43%
8,CCCOc1ccc(NP(C)(=O)Oc2ccc(Cl)cc2)cc1 (stereo not given),inactive: 15.5%
9,O=[N+]([O-])c1cc([N+](=O)[O-])c(Nc2nnnn2CCO)c([N+](=O)[O-])c1,inactive: 8.78%
10,CCOC(=O)C(CC)C1=NC(C)(C)Cc2ccccc21.O=[N+]([O-])c1cc([N+](=O)[O-])c(O)c([N+](=O)[O-])c1 (stereo not given),inactive: 2.87%
11,Cc1nc2ccc3ccccc3c2s1.O=[N+]([O-])c1cc([N+](=O)[O-])c(O)c([N+](=O)[O-])c1,inactive: 14.3%
12,O=[N+]([O-])c1cc([N+](=O)[O-])c(-n2nnc3ccccc32)c([N+](=O)[O-])c1,inactive: -5.37%
13,Cc1ccc(C)c(NP(C)(=O)Oc2ccccc2)c1 (stereo not given),inactive: 9.09%
14,CP(=O)(Nc1cccc(Br)c1)Oc1ccccc1 (stereo not given),active: 78.4%
15,Cc1cc(C)cc(OP(C)(=O)Nc2ccccn2)c1 (stereo not given),inactive: -20%
16,COc1ccccc1OP(C)(=O)Nc1cccc(Br)c1 (stereo not given),inactive: 19.6%
17,CCOC(=O)c1ccc(NP(C)(=O)Oc2cc(C)cc(C)c2)cc1 (stereo not given),inactive: 13.6%
18,Cc1cc(C)cc(OP(C)(=O)Nc2ccc(C)cc2C)c1 (stereo not given),inactive: -0.37%
19,CC1=NCCc2c1[nH]c1ccccc21.O=[N+]([O-])c1cc([N+](=O)[O-])c(O)c([N+](=O)[O-])c1,inactive: -120%
20,O=C(O)c1cccc(Nc2c([N+](=O)[O-])cc([N+](=O)[O-])cc2[N+](=O)[O-])c1,inactive: 20.3%

# Source: PubChem BioAssay AID1236 (Emory University Molecular Libraries Screening Center, 2008)
